# AlphaSeq binding of Ab-14 heavy chain variants to a spike HR2 peptide

The target is the same throughout: PDVDLGDISGINAS, from the HR2 region of SARS-CoV-2 spike.

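The starting antibody came from a phage panning campaign against this peptide. These sequences belong to a second round, designed from the earlier measurements on random variants of the parent. Several design methods are mixed in this list. The scFvs were displayed on barcoded MATa yeast, the peptide on MATalpha yeast. Mating (16 h, 30 °C) was followed by selection of diploids and sequencing of their barcodes. The ratio of observed to expected reads was calibrated, replicate by replicate, on BCL2-family standards whose Kd was known from biolayer interferometry. Each pool was mated in six replicate cultures.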

Parent scFv Ab-14: VH joined to VL by the linker GGGGSGGGGSGGGGS. Changes lie in the heavy chain CDRs alone.
VH: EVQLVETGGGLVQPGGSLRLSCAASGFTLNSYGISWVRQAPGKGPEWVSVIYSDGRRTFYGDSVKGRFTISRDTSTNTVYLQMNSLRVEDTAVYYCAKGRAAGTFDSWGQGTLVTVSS
VL: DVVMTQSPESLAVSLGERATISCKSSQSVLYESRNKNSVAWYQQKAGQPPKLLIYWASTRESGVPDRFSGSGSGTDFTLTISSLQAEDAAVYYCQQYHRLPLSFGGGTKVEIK

Variants are written as CDR1, CDR2 and CDR3 of the heavy chain (limits as in the source). Parent: GFTLNSYGIS, VIYSDGRRTFYGDSVK, GRAAGTFDS.
Variants here have at most six changes.
Kd is apparent (estimated from mating counts) and averaged on the log scale over replicates with a signal. Smaller is tighter.
Where no diploid with the target was found in any replicate, the entry reads "nd": below detection, most likely a poor binder, though not proof of it.
Nonspecific signal, from three strains lacking the peptide, appeared in 1% of pairings of all heavy chain designs, centred on 120 nM (5% of these signals below 7.0 nM); values are not corrected for it.
Of ten entries with the parent sequence, four were seen in most replicates (averages 2.2 nM to 240 nM), three in one and three in none, so single entries are noisy.
The authors' rule: three or more of the six replicates give a measured affinity, fewer mean a poor binder.
Where one sequence has several entries in the source, the replicates are pooled.
A sequence measured in both rounds can read differently, since the two assays cover different ranges.

With GFTLNEYGIS | VIYSDGRRTFYSDSVK | GRAAGTFNS the result was 10 nM (6 of 6 replicates). Variant GFTLNQYGIS | VIYSDGRRTFYGDSVK | GRAHGFFDL gave nd (0 of 6 replicates). Variant GFELNEYGIS | VIYSDGRRTFYGDSVK | GRTAGTFDK gave 1.3 nM (6 of 6 replicates). Variant GFNLDSYSRS | VIYSDGRRTFYGDDVK | GREAGTFDS showed 230 pM (6 of 6 replicates). Variant GFQLNSYGIS | VIYSDGRRTFYGDSVK | GEAAGTFDD showed nd (0 of 6 replicates). For PFELNSYGIS | VIYSDGRRTFYIDSVK | GRQAGTFDS, the assay gave nd (0 of 6 replicates). Variant GFTLNDYGIS | VIYSDGRRTFYSDSVK | GRAAGTFDI gave 4.5 nM (6 of 6 replicates). Variant GFTLNSYGIS | VIYSDGRRTFYGDSVK | NRAAGTFDQ showed nd (0 of 6 replicates).

For GFTLNSYGIS | VIYSDGRRTFYSDSVD | GQAAGTFDL, the assay gave 2.1 nM (6 of 6 replicates). With GFSLNQYGIS | VIYSDGRRTFYGDSVK | GRTAGTFDS the result was 840 pM (6 of 6 replicates). Variant GFSLNSYGIS | VIYSDGRRTFYADSVK | GRTAGTFWS showed nd (0 of 6 replicates). With GFSLNSYGIS | VIYSDGRRTFYADEVK | GRTAGTFDS the result was 1.5 nM (6 of 6 replicates). Variant GFTLNSYGIS | VIYSDGFRTAYGDSVK | GRAAGTFDS showed 3.0 nM (3 of 6 replicates). Variant GFDLNSYGIS | VIYSDGRRAFYGDSVK | GQAAGTFDS gave 12 nM (6 of 6 replicates). Variant GFDLHSYGES | VIYSDGRRTFYGDSVK | GRAAGWFNS showed nd (0 of 6 replicates). For GFWLNSYGIS | VIYSDGRRTFYIDKVK | GYTAGTFDS, the assay gave 77 nM (1 of 6 replicates).

For GFTLNSYGIS | VIYSDGWRTFYGDSVK | GEAAGTFDS, the assay gave nd (0 of 6 replicates). For GFTMNSYGIS | VIYSDGRRHFYGDSVK | GRAAGTFDS, the assay gave nd (0 of 6 replicates). With GFDLNSYGIS | VIYSDGRRTFYDDSVK | GEAAGTFDS the result was 4.0 nM (6 of 6 replicates). For GFDLNSYGIS | VIYSDGRRTFYGDSVK | GRQAGTFDK, the assay gave 7.4 nM (6 of 6 replicates). Variant GFTLESYGIS | VIYADGRRTFYGDSVK | GRAAGTFTS showed 98 nM (1 of 6 replicates). With GFTLNDYGIS | VIYSDGRRTFYSDSVK | GREAGTFFS the result was 220 nM (4 of 6 replicates). Variant GFDLNSYGIS | VIYSDGRRTFYVDSVK | GEAAGTFDS gave 7.0 nM (6 of 6 replicates). With GFTLNSYGIS | VIYSDGRRTFYGDSVK | GDKQGTFDS the result was nd (0 of 6 replicates).

With GFELEKYGIS | VIYSDGRRTFYGDSVK | GRAAGTFDS the result was 500 pM (6 of 6 replicates). With GFTLNSYGIS | VIYSDGRRTFYGDSVK | GAAAGTFDG the result was 20 nM (6 of 6 replicates). Variant GFSLNSYGIS | VIYSDGRRTFYGDSVK | GRAAGTFDN gave 47 nM (4 of 6 replicates). With GFTLNQYGIS | VIYSDGRRTSYGDSVK | GFATGTFDS the result was 4.2 nM (6 of 6 replicates). For GFTLNSYGIS | VIYSDGRRTFYIDSVK | GMEAGTFDS, the assay gave 8.9 nM (4 of 6 replicates). With GFTLNQYGIS | VIYADGRRTFYGDSVK | GRAAGTFDS the result was 920 pM (12 of 12 replicates). With GFTLDSYGIS | VIYSDGRRTEYGDSVK | GRAAGTLLS the result was nd (0 of 6 replicates). Variant GFSLNEYGIS | VIYSDGRRTFYGDSVK | GMAAGTFDS gave 290 pM (6 of 6 replicates).

With GFTLNDYQIS | VIYSDGRRTFAGDSVK | GRAALTFIS the result was nd (0 of 6 replicates). Variant GFTLNSYGIS | VIYSDGRRTFYKDNVS | GRAAGGNDS gave nd (0 of 6 replicates). For GFNLNSYGIS | VIYSDGKRTFYVDSVK | GRQAGTFDS, the assay gave 10 nM (6 of 6 replicates).

Extract of 2 entries:

{"CDR-H1": "PFELNSYGIS", "CDR-H2": "VIYSDGRRTFYIDSVK", "CDR-H3": "GRQAGTFDS", "Kd": "nd", "detected": "0 of 6"}
{"CDR-H1": "GFTLNSYGIS", "CDR-H2": "VIYSDGWRTFYGDSVK", "CDR-H3": "GEAAGTFDS", "Kd": "nd", "detected": "0 of 6"}

Source: Li et al. 2023 (doi:10.1038/s41467-023-39022-2), MIT Lincoln Laboratory and A-Alpha Bio; data file from the FLAb repository.